System: nitric oxide (NO) secretion in LPS-stimulated RAW264.7 cells
Assay: NO secretion (Griess assay) in LPS-stimulated RAW264.7 cells
Settings: 2 h pre-treatment then LPS 500 ng/mL for 22 h, OD 550 nm, mean of duplicate

In the case of Xinghamide A, the NO secretion (100 μM compound) is reported as 12.6 µM and the NO secretion (200 μM compound) is reported as 2.5 µM.

— paper PMC10608500 (Marine Drugs, 2023)
